Laboratory results as given in patent publication US20110112308A1 (NOVARTIS AG, priority 2006, published 2011).

How the values were obtained:
[1] = Approximate solubility in water and at pH 1 (supplemental testing); type: physicochemical; conditions: for Form by XRPD of solid residue, Water: after equilibration in water > 20 hours
Procedure: An approximate solubility of the below-listed salts was determined in water and at pH 1 by suspending 5-15 mg of the salt in 1 mL of solvent. The samples were allowed to equilibrate at ambient temperature for at least 20 hours. The supernatant was filtered and used for the solubility determination, which was done gravimetrically, for the aqueous solubility, and by UV-VIS spectroscopy for pH 1. The solid residue was analyzed by XRPD. […] They were subsequently analyzed by XRPD and TGA, if the latter deemed necessary. Only irreversible or slowly reversible events can be detected.

[2] = Solubility, 24-hour equilibration at room temperature; type: physicochemical; conditions: for Solubility: approx. at 25° C.
Procedure: Aqueous Solubility: A carefully weighted amount (20-50 mg) of sample is dissolved in 1 ml of solvent with 24-hour equilibration at room temperature. The solubility was determined either gravimetrically or by UV-VIS spectrometry. The pH of the clear solution was also measured. However, the difficulty of determining salt solubilities in water should be stressed, since upon dissolution dissociation to the free form is possible, which affects both the solubility and the pH. It's not unlikely that attempts to make solutions of a salt at a concentration well below the reported solubility of the salt to be unsuccessful (for a full discussion see: M. Pudipeddi, A. T. M. Serajuddin, D. J. W. Grant, and P. H. Stahl in “Handbook of Pharmaceutical Salts Properties Selection and Use” page 27 and references therein).

1:1 propionate salt of N-hydroxy-3-[4-[[[2-(2-methyl-1H-indol-3-yl)ethyl]amino]methyl]phenyl]-2E-2-propenamide
approximate aqueous solubility [1]: ~4000 µg/mL
S (approximate solubility), pH 1 ([1]; EQ t > 20 hours, ambient temperature, UV-VIS): 0.34 mg/mL
S (approximate solubility), Water ([1]; EQ t > 20 hours, ambient temperature, gravimetric): 4190 µg/mL
Form by XRPD of solid residue, Water [1]: free base
Form by XRPD of solid residue, Water ([1]; listed as propionate): free base only

2:1 L-tartarate salt of N-hydroxy-3-[4-[[[2-(2-methyl-1H-indol-3-yl)ethyl]amino]methyl]phenyl]-2E-2-propenamide
aqueous solubility [2]: 3500 µg/mL
solubility in alcohols, in words [2]: limited
Solubility ([2]; 0.1N HCl): 0.4 mg/mL
Solubility ([2]; 2-Propanol): 0.3< mg/mL
Solubility ([2]; Acetone): 4.6 mg/mL
Solubility ([2]; Ethanol): 0.5< mg/mL
Solubility ([2]; Ethyl acetate): 3.9 mg/mL
Solubility ([2]; Methanol): 2.6 mg/mL
Solubility ([2]; Propylene glycol): 7.2 mg/mL
Solubility ([2]; Water): 3.5 mg/mL
approximate solubility in water as % ([2]; estimated from mg/mL assuming solution density 1 g/mL): approximately 0.3%
Solubility ([2]; pH = 6.8 buffer): 1.9 mg/mL
